Common to all, as to experiment: SPR
For orientation: SPR reads the build-up and loss of mass on a sensor chip optically.

Protein sequences, listed by entry. Tags and fused reporters are not part of them. Residues count along the entry.
UniProt P35968, 20-764: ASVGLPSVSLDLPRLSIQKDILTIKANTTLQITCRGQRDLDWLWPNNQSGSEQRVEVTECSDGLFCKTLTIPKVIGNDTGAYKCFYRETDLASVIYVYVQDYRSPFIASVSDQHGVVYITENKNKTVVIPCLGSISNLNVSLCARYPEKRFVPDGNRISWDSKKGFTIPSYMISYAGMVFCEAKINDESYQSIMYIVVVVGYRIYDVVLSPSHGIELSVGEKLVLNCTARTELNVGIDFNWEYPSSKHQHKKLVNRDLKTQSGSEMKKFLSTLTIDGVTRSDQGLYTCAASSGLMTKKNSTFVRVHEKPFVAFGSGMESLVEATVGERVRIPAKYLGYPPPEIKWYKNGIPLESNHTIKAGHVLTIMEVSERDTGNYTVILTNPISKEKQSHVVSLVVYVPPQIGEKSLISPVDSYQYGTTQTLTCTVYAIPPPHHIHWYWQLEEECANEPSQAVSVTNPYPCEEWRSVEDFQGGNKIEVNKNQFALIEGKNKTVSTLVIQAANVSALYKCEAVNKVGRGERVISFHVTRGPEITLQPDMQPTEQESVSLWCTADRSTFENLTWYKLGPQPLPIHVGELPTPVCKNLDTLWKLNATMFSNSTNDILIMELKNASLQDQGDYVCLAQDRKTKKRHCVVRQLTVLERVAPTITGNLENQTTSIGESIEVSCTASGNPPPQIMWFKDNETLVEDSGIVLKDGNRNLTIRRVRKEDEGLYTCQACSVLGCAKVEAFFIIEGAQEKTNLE

In test [1] the target is Z_(VEGFR2_22)-(S4G)4-ABD035-(S4G)4-Z_(VEGFR2_22).
Test [2] concerns the target Z_(VEGFR2_22)-(S4G)4-ABD035-(S4G)4-Z_(VEGFR2_40).
Test [3] has as its target Z_(VEGFR2_40)-(S4G)4-ABD035-(S4G)4-Z_(VEGFR2_22).
Test [4] has as its target Z_(VEGFR2_40)-(S4G)4-ABD035-(S4G)4-Z_(VEGFR2_40).

One substance from article PMC4268634 can be followed below.

In general, koff refers to the first-order rate constant of dissociation. Consider “monomeric human VEGFR2 (from UniProt P35968 20-764) (receptor)”, for which the off-rate (koff) is 0.0016 s⁻¹ in test [1], 8.4e-05 s⁻¹ in test [2], 0.00015 s⁻¹ in test [3] and 0.0012 s⁻¹ in test [4].
